The values below come from ChEMBL document CHEMBL2321866 (J Med Chem, 2013).

Amino acid sequences for entries named in this document (tags omitted).
UniProt P21554, whole entry: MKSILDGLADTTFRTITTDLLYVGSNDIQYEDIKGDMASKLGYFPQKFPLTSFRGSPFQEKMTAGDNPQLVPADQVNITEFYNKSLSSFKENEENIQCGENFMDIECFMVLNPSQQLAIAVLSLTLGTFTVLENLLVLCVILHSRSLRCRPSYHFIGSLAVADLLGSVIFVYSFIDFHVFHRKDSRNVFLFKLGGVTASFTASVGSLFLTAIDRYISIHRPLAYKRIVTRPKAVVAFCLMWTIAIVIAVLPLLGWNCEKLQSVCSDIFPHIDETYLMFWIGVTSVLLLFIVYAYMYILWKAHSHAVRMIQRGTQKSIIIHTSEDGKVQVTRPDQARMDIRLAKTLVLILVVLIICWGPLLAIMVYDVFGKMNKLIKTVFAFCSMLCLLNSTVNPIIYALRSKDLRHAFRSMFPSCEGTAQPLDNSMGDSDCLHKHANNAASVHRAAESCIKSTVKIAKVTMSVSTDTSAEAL

For orientation: Ki means the equilibrium dissociation constant of an inhibitor or competing ligand from its target. A high value points to a looser hold on the target.

One experiment deals with Cannabinoid receptor 1 (Homo sapiens, UniProt P21554).
The species entered for another experiment is Homo sapiens. The experiment is described as follows: Selectivity index, ratio of Ki for CB1 receptor (unknown origin) to Ki for CB2 receptor (unknown origin).

The molecule `CCN(CC)c1ccc(CN([C@]23C[C@H]4C[C@H](C[C@H](C4)C2)C3)S(=O)(=O)c2ccc(OC)cc2)cc1` returned a Ki on Cannabinoid receptor 1 of 7.3 µM.

Turning to `CCN(CC)c1ccc(CN([C@]23C[C@H]4C[C@H](C[C@H](C4)C2)C3)S(=O)(=O)c2ccc(F)cc2)cc1`, the Ratio Ki in the experiment listed under Homo sapiens was determined as 170.

Turning to `CCN(CC)c1ccc(CN(c2ccc(C)cc2)S(=O)(=O)c2ccc(C)cc2)cc1`, the Ratio Ki in the experiment listed under Homo sapiens turned out to be 80.

As to `CCN(CC)c1ccc(CN([C@]23C[C@H]4C[C@H](C[C@H](C4)C2)C3)S(=O)(=O)c2cccc(C)c2)cc1`, the Ratio Ki in the experiment listed under Homo sapiens came to 432.
